The record followed here is patent US20070060605A1, “Compositions and methods for inhibiting platelet activation and thrombosis” (priority 2001, published 2007).

The data set concerns platelet accumulation into thrombus. As to conditions: mouse, in vivo. From the text: A preferred animal model involves intravital microscopy of laser-induced thrombi. The method is described by Rosen et al., 2001, Am J Pathol 158, 1613-1622, which is incorporated herein by reference. Minor variations of that method were employed as described below.
Experimental mice are pre-anesthetized and surgically prepared. A tracheal tube is placed to facilitate breathing and the jugular vein is canulated to allow for maintenance of anesthetic and introduction of compound. The cremaster muscle is then exteriorized. The muscle is affixed over a glass slide, allowing illumination from below. […]
Thrombosis is initiated by damaging the vessel wall (of a 30 μm vessel) with a laser pulse from a MicroPoint LASER attached to the microscope. […] The recruitment of platelets to the thrombus is then monitored by the accumulation of (activated) Alexa 488-labeled platelets at the ablation site using fluorescence microscopy, and the process is recorded digitally. The method thus permits in vivo analysis of platelet activation as measured by platelet aggregation and thrombosis.
The degree of embolization in an untreated mouse can be quantified using software for image analysis, e.g., BioQuant True Color Windows (Biometrics, Nashville, Tenn.), as described in Rosen et al., 2001, supra. […]

As for “9-methylene-4-(alkyl)-2,3,4,9-tetrahydro-1H-cyclopenta(b)quinoline”, the Tolerability in mice entry is “tolerated”.
